Earlier results as cited in publication PMC3228891 (2011).
pKi: −log10 of the molar value.

Target: H1 receptor
Settings: read-out: Ki H1 receptor (ChEMBLdb); known activity in ChEMBLdb ref 28; cited from earlier work

CN(C)CCCN1c2ccccc2Sc2ccccc21 [Promazine]
pKi: ≥ 5.00
